Source: IntAct's records for PubMed 31515488

B1: ADP-ribosylation factor-like protein 2 (Homo sapiens), P36404 (parent)
chain: MGLLTILKKMKQKERELRLLMLGLDNAGKTTILKKFNGEDIDTISPTLGFNIKTLEHRGFKLNIWDVGGQKSLRSYWRNYFESTDGLIWVVDSADRQRMQDCQRELQSLLVEERLAGATLLIFANKQDLPGALSSNAIREVLELDSIRSHHWCIQGCSAVTGENLLPGIDWLLDDISSRIFTAD
B2: T-cell leukemia/lymphoma protein 1A (Homo sapiens), P56279 (parent)
chain: MAECPTLGEAVTDHPDRLWAWEKFVYLDEKQHAWLPLTIEIKDRLQLRVLLRREDVVLGRPMTPTQIGPSLLPIMWQLYPDGRYRSSDSSFWRLVYHIKIDGVEDMLLELLPDD
partner: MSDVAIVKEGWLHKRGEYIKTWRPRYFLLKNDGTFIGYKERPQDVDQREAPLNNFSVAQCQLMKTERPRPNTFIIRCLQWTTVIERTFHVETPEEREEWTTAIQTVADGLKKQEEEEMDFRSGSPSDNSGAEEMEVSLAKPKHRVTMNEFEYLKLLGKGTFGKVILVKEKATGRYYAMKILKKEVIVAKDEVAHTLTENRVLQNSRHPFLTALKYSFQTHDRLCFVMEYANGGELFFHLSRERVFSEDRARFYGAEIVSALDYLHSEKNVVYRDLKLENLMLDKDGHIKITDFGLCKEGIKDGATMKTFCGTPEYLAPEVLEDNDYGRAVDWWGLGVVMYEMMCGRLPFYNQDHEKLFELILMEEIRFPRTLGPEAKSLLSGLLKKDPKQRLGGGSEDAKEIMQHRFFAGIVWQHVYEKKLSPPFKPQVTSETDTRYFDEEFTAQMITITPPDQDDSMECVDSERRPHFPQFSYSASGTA
B3: TNFAIP3-interacting protein 1 (Homo sapiens), Q15025 (parent)
chain: MEGRGPYRIYDPGGSVPSGEASAAFERLVKENSRLKEKMQGIKMLGELLEESQMEATRLRQKAEELVKDNELLPPPSPSLGSFDPLAELTGKDSNVTASPTAPACPSDKPAPVQKPPSSGTSSEFEVVTPEEQNSPESSSHANAMALGPLPREDGNLMLHLQRLETTLSVCAEEPDHGQLFTHLGRMALEFNRLASKVHKNEQRTSILQTLCEQLRKENEALKAKLDKGLEQRDQAAERLREENLELKKLLMSNGNKEGASGRPGSPKMEGTGKKAVAGQQQASVTAGKVPEVVALGAAEKKVKMLEQQRSELLEVNKQWDQHFRSMKQQYEQKITELRQKLADLQKQVTDLEAEREQKQRDFDRKLLLAKSKIEMEETDKEQLTAEAKELRQKVKYLQDQLSPLTRQREYQEKEIQRLNKALEEALSIQTPPSSPPTAFGSPEGAGALLRKQELVTQNELLKQQVKIFEEDFQRERSDRERMNEEKEELKKQVEKLQAQVTLSNAQLKAFKDEEKAREALRQQKRKAKASGERYHVEPHPEHLCGAYPYAYPPMPAMVPHHGFEDWSQIRYPPPPMAMEHPPPLPNSRLFHLPEYTWRLPCGGVRNPNQSSQVMDPPTARPTEPESPKNDREGPQ
partner: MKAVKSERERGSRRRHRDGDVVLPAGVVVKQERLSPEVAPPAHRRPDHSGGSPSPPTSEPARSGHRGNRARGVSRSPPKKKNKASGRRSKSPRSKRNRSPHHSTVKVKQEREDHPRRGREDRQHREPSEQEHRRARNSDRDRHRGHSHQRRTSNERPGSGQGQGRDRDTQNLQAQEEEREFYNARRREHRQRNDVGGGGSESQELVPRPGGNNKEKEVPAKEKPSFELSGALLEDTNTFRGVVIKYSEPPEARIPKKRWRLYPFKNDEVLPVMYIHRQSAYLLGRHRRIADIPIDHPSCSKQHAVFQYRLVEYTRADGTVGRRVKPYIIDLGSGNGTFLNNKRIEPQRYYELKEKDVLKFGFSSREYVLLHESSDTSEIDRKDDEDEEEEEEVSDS
B4: Histone-lysine N-methyltransferase SUV39H2 (Homo sapiens), Q9H5I1 (parent)
chain: MAAVGAEARGAWCVPCLVSLDTLQELCRKEKLTCKSIGITKRNLNNYEVEYLCDYKVVKDMEYYLVKWKGWPDSTNTWEPLQNLKCPLLLQQFSNDKHNYLSQVKKGKAITPKDNNKTLKPAIAEYIVKKAKQRIALQRWQDELNRRKNHKGMIFVENTVDLEGPPSDFYYINEYKPAPGISLVNEATFGCSCTDCFFQKCCPAEAGVLLAYNKNQQIKIPPGTPIYECNSRCQCGPDCPNRIVQKGTQYSLCIFRTSNGRGWGVKTLVKIKRMSFVMEYVGEVITSEEAERRGQFYDNKGITYLFDLDYESDEFTVDAARYGNVSHFVNHSCDPNLQVFNVFIDNLDTRLPRIALFSTRTINAGEELTFDYQMKGSGDISSDSIDHSPAKKRVRTVCKCGAVTCRGYLN
B5: ADP-ribosylation factor-like protein 2 (Homo sapiens), P36404 (parent)
chain: B1 chain
partner: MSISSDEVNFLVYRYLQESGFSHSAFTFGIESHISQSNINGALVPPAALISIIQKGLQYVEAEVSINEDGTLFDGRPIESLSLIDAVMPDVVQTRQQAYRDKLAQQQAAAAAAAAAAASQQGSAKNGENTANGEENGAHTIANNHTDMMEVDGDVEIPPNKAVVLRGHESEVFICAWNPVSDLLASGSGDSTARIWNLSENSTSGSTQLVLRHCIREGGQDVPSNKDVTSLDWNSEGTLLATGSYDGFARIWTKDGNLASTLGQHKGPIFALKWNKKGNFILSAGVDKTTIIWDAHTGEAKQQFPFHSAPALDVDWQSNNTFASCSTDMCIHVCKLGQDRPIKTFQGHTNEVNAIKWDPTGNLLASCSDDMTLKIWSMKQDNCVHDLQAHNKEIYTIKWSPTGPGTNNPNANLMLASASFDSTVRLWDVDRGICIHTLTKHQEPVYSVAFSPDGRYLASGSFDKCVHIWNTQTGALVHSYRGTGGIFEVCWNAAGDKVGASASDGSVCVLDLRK
B6: Large proline-rich protein BAG6 (Homo sapiens), P46379 (parent)
chain: MEPNDSTSTAVEEPDSLEVLVKTLDSQTRTFIVGAQMNVKEFKEHIAASVSIPSEKQRLIYQGRVLQDDKKLQEYNVGGKVIHLVERAPPQTHLPSGASSGTGSASATHGGGSPPGTRGPGASVHDRNANSYVMVGTFNLPSDGSAVDVHINMEQAPIQSEPRVRLVMAQHMIRDIQTLLSRMETLPYLQCRGGPQPQHSQPPPQPPAVTPEPVALSSQTSEPVESEAPPREPMEAEEVEERAPAQNPELTPGPAPAGPTPAPETNAPNHPSPAEYVEVLQELQRLESRLQPFLQRYYEVLGAAATTDYNNNHEGREEDQRLINLVGESLRLLGNTFVALSDLRCNLACTPPRHLHVVRPMSHYTTPMVLQQAAIPIQINVGTTVTMTGNGTRPPPTPNAEAPPPGPGQASSVAPSSTNVESSAEGAPPPGPAPPPATSHPRVIRISHQSVEPVVMMHMNIQDSGTQPGGVPSAPTGPLGPPGHGQTLGQQVPGFPTAPTRVVIARPTPPQARPSHPGGPPVSGTLQGAGLGTNASLAQMVSGLVGQLLMQPVLVAQGTPGMAPPPAPATASASAGTTNTATTAGPAPGGPAQPPPTPQPSMADLQFSQLLGNLLGPAGPGAGGSGVASPTITVAMPGVPAFLQGMTDFLQATQTAPPPPPPPPPPPPAPEQQTMPPPGSPSGGAGSPGGLGLESLSPEFFTSVVQGVLSSLLGSLGARAGSSESIAAFIQRLSGSSNIFEPGADGALGFFGALLSLLCQNFSMVDVVMLLHGHFQPLQRLQPQLRSFFHQHYLGGQEPTPSNIRMATHTLITGLEEYVRESFSLVQVQPGVDIIRTNLEFLQEQFNSIAAHVLHCTDSGFGARLLELCNQGLFECLALNLHCLGGQQMELAAVINGRIRRMSRGVNPSLVSWLTTMMGLRLQVVLEHMPVGPDAILRYVRRVGDPPQPLPEEPMEVQGAERASPEPQRENASPAPGTTAEEAMSRGPPPAPEGGSRDEQDGASAETEPWAAAVPPEWVPIIQQDIQSQRKVKPQPPLSDAYLSGMPAKRRKTMQGEGPQLLLSEAVSRAAKAAGARPLTSPESLSRDLEAPEVQESYRQQLRSDIQKRLQEDPNYSPQRFPNAQRAFADDP
partner: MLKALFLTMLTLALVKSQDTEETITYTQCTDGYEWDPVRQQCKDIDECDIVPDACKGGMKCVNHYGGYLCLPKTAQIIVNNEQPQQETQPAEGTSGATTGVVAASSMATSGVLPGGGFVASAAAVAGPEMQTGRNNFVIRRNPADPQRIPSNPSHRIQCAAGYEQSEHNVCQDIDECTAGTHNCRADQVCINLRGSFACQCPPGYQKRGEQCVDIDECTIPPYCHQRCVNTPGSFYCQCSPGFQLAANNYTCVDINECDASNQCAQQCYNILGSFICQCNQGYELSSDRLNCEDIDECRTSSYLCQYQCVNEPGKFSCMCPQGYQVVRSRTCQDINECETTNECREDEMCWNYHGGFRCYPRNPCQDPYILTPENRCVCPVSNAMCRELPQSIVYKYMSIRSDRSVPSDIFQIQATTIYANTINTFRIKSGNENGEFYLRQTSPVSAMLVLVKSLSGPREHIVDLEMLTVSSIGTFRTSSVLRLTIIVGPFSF
B7: Zinc finger protein SNAI1 (Homo sapiens), O95863 (parent)
chain: MPRSFLVRKPSDPNRKPNYSELQDSNPEFTFQQPYDQAHLLAAIPPPEILNPTASLPMLIWDSVLAPQAQPIAWASLRLQESPRVAELTSLSDEDSGKGSQPPSPPSPAPSSFSSTSVSSLEAEAYAAFPGLGQVPKQLAQLSEAKDLQARKAFNCKYCNKEYLSLGALKMHIRSHTLPCVCGTCGKAFSRPWLLQGHVRTHTGEKPFSCPHCSRAFADRSNLRAHLQTHSDVKKYQCQACARTFSRMSLLHKHQESGCSGCPR
partner: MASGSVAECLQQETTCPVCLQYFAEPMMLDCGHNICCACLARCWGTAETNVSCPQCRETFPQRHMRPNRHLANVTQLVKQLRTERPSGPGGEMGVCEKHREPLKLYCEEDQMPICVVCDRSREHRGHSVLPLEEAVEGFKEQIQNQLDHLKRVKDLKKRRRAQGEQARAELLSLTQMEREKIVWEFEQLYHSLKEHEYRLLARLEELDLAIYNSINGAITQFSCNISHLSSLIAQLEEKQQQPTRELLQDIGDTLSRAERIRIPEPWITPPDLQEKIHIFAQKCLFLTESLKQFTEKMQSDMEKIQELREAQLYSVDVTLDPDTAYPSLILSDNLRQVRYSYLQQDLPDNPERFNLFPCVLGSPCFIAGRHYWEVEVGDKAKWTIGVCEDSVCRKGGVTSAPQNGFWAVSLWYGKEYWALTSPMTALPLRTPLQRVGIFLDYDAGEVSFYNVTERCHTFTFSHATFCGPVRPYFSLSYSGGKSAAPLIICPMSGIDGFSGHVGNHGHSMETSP

Variants of: B1
Conditions: with pde6d_human PDE6D

Variant | effect of a mutation on the interaction
MGLLTILKKMKQKERELRLLMLGLDNAGKTTILKKFNGEDIDTISPTLGFNIKTLEHRGFKLNIWDVGGQKSLRSYWRNYFESTDGLIWVVDSADRQRMQDCQRELQSLLVEERLAGATLLIFANKQDLPGALSSNAICEVLELDSIRSHHWCIQGCSAVTGENLLPGIDWLLDDISSRIFTAD | with no effect

Variants of: B2
Conditions: with akt1_human AKT1, P31749

Variant | effect of a mutation on the interaction
MAECPTLGEAVTDHPDRLWAWEKFVYLDEKQHAWLPLTIEIKDRLQLRVLLRREDVVLGRPMTPTQIGPSLLPIMWQLYPDGRYRSSDSSFWRLVYHIKIDGMEDMLLELLPDD | with no effect

Variants of: B3
Conditions: with snip1_human SNIP1, Q8TAD8

Variant | effect of a mutation on the interaction
V16M | with no effect
G178S | with no effect
K30T | with no effect

Variants of: B4
Conditions: with pnma1_human PNMA1, Q8ND90

Variant | effect of a mutation on the interaction
MAAVGAEARGAWCVPCLVSLDTLQELCRKEKLTCKSIGITKRNLNNYEVEYLCDYKVVKDMEYYLVKWKGWPDSTNTWEPLQNLKCPLLLQQFSNDKHNYLSQVKKGKAITPKDNNKTLKPAIAEYIVKKAKQRIALQRWQDELNRRKNHKGMIFVENTVDLEGPPSDFYYINEYKPAPGITLVNEATFGCSCTDCFFQKCCPAEAGVLLAYNKNQQIKIPPGTPIYECNSRCQCGPDCPNRIVQKGTQYSLCIFRTSNGRGWGVKTLVKIKRMSFVMEYVGEVITSEEAERRGQFYDNKGITYLFDLDYESDEFTVDAARYGNVSHFVNHSCDPNLQVFNVFIDNLDTRLPRIALFSTRTINAGEELTFDYQMKGSGDISSDSIDHSPAKKRVRTVCKCGAVTCRGYLN [S182T] | with no effect

Variants of: B5
Conditions: with tbl1r_human TBL1XR1, Q9BZK7

Variant | effect of a mutation on the interaction
MGLLTILKKMKQKERELRLLMLGLDNAGKTTILKKFNGEDIDTISPTLGFNIKTLEHRGFKLNIWDVGGQKSLRSYWRNYFESTDGLIWVVDSADRQRMQDCQRELQSLLVEERLAGATLLIFANKQDLPGALSSNAICEVLELDSIRSHHWCIQGCSAVTGENLLPGIDWLLDDISSRIFTAD | with no effect

Variants of: B6
Conditions: with fbln3_human EFEMP1, Q12805

Variant | effect of a mutation on the interaction
S625P | with no effect

Variants of: B7
Conditions: with tri27_human TRIM27, P14373

Variant | effect of a mutation on the interaction
MPRSFLVRKPSDPNRKPNYSELQDSNPEFTFQQPYDQAHLLAAIPPPEILNPTASLPMLIWDSVLAPQAQPIAWASLRLQESPRVAELTSLSDEDSGKGSQPPSPPSPAPSSFSSTSASSLEAEAYAAFPGLGQVPKQLAQLSEAKDLQARKAFNCKYCNKEYLSLGALKMHIRSHTLPCVCGTCGKAFSRPWLLQGHVRTHTGEKPFSCPHCSRAFADRSNLRAHLQTHSDVKKYQCQACARTFSRMSLLHKHQESGCSGCPR [V118A] | with no effect
